According to PMC3862803, “Human Breast Tumor Cells Are More Resistant to Cardiac Glycoside Toxicity Than Non-Tumorigenic Breast Cells” (PLoS ONE, 2013):

System: p-ERK1/2
Assay: Western blot of cell lysates for p-ERK1/2
Type: cell-based, human
Details: cancer cells (MCF10CA1, MDA-MB-231); staurosporine, 24 hours

## CN[C@@H]1C[C@H]2O[C@@](C)([C@@H]1OC)n1c3ccccc3c3c4c(c5c6ccccc6n2c5c31)C(=O)NC4 [staurosporine]
  p-ERK expression in lysates (western blot): enhanced p-ERK expression
